{
  "source": "patent US20210340177A1",
  "about": "“BIOACTIVE PEPTIDES HAVING HIGH BINDING AFFINITY TO HUMAN MUSCULAR NICOTINIC ACETYLCHOLINE RECEPTOR” (priority 2020, published 2021)",
  "system": "Human epidermal keratinocytes (HEKs)",
  "experiment": "MTT assay on human epidermal keratinocytes in in vitro cultures",
  "details": "MTT reading at 570 nm, 24 hours after treatment",
  "data": [
    {"substance": "Lys-Lys-Tyr-Lys [Peptide V0083091A]", "values": [
      {"measurement": "Effect on viability of the HEKs (cytotoxicity)", "value": "non-cytotoxic effect"},
      {"measurement": "Effect on viability of the HEKs (cytotoxicity)", "setting": "listed as KKYK", "value": "non-cytoxic effect"}
    ]}
  ]
}
